# Laboratory results as given in ChEMBL document CHEMBL2062463 (Bioorg Med Chem Lett, 2012).
# Test system: Liver (Mus musculus)
# Assay: Drug metabolism in mouse liver homogenates assessed as formation of SU12662 after 1 hr incubation by HPLC analysis
# Details: tissue homogenate; call rule not given here
smiles,measurement,value
CCN(CC)CCNC(=O)c1c(C)[nH]c(/C=C2\C(=O)Nc3ccc([125I])cc32)c1C,Drug metabolism,Active
